Holding throughout (assay type): cell membranes
For assay [1], the target named is T1, P2Y purinoceptor 2 (Homo sapiens, UniProt P41231). The assay is described as follows: Competitive binding affinity to NLuc fused P2Y2R (unknown origin) extracted from 1321N1 cell membrane assessed as inhibition of BRET signal at 1 mM incubated for 1 hr in presence of 2-((5-(7-chloro-2-((3-((2-(5-(3-(5,5-difluoro-7,9-dimethyl-5H-4lambda4,5lambda4-dipyrrolo[1,2-c:2',1'-f][1,3,2]diazabo …. Further details: scale not given: the % may be the effect or the level left.

The chains behind the UniProt entries cited, without tags or fusion partners. Where a name states a change or a piece, a line headed by the entry shows the natural chain unless it says otherwise.
UniProt P41231: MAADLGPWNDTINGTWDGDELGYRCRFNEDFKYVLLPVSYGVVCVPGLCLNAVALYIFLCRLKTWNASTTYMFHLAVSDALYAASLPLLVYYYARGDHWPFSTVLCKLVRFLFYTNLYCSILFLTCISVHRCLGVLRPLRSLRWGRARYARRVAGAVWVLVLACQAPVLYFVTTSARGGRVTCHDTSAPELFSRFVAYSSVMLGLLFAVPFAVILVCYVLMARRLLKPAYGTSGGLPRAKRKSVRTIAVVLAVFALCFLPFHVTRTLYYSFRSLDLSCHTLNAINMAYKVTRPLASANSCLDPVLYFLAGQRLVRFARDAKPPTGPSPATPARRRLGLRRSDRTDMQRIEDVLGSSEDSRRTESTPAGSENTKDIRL
UniProt P61073, whole entry: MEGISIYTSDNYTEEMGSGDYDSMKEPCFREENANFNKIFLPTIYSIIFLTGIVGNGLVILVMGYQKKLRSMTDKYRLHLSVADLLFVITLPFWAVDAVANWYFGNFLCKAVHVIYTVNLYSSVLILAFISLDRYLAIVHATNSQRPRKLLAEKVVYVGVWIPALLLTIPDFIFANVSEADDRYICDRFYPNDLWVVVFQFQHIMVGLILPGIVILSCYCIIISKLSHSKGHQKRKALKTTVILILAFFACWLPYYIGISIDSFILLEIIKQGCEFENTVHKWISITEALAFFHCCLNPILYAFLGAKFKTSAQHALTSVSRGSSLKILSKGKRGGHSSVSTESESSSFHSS

For assay [2], the target named is T1, P2Y purinoceptor 2. Kind of assay: Binding affinity to NanoLuc-fused P2Y2R (unknown origin) extracted from 1321N1 cell membrane incubated for 1 hr in presence of 7-((5-(bis(4-chlorophenyl)methyl)thiazol-2-yl)amino)heptanoic acid by NanoBRET assay.
The target in assay [3] is C-X-C chemokine receptor type 4 (Homo sapiens) (UniProt P61073). The assay is described as follows: Binding affinity to NLuc-tagged CXCR4 (unknown origin) extracted from HEK293 cell membrane incubated for 1 hr in presence of 7-((5-(bis(4-chlorophenyl)methyl)thiazol-2-yl)amino)heptanoic acid by NanoBRET assay.

SMILES strings stand for the structures. Active and inactive are the calls of the source. The calls are words filed in the database; no cut-off is given here.

As for `CCOCCNc1ncc(C(c2ccc(Cl)cc2)c2ccc(Cl)cc2)s1`, at P2Y purinoceptor 2 [1], the Activity came to 44%.
For `Cc1cc(C)n2c1C=C1C=CC(CCC(=O)NCCCCCC(=O)N[C@@H](CCCNc3ncc(C(c4ccc(Cl)cc4)c4ccc(Cl)cc4)s3)C(=O)O)=[N+]1[B-]2(F)F`, the outcome on P2Y purinoceptor 2 [2] was Active.
Same read-out and setting: as for `CN(C)c1ccc2c(-c3ccc(C(=O)N[C@@H](CCNc4ncc(C(c5ccc(Cl)cc5)c5ccc(Cl)cc5)s4)C(=O)O)cc3C(=O)[O-])c3ccc(=[N+](C)C)cc-3oc2c1`, the entry is “Active”.
Take `O=C(COc1ccc(/C=C/C2=[N+]3C(=Cc4ccc(-c5cccs5)n4[B-]3(F)F)C=C2)cc1)NCCCCCC(=O)N[C@@H](CCCNc1ncc(C(c2ccc(Cl)cc2)c2ccc(Cl)cc2)s1)C(=O)O`: on P2Y purinoceptor 2 [2], the result was Active. Moreover, the outcome in assay [3] was inactive.
Take `CN(C)c1ccc2c(-c3ccc(C(=O)N[C@@H](CCCNc4ncc(C(c5ccc(Cl)cc5)c5ccc(Cl)cc5)s4)C(=O)O)cc3C(=O)[O-])c3ccc(=[N+](C)C)cc-3oc2c1`: at P2Y purinoceptor 2 [2], the outcome was Active.
Regarding `O=C(COc1ccc(/C=C/C2=[N+]3C(=Cc4ccc(-c5cccs5)n4[B-]3(F)F)C=C2)cc1)NCCCCCC(=O)N[C@@H](CCNc1ncc(C(c2ccc(Cl)cc2)c2ccc(Cl)cc2)s1)C(=O)O`, the outcome on P2Y purinoceptor 2 [2] was Active.
As to `Cc1cc(C)n2c1C=C1C=CC(CCC(=O)NCCCCCC(=O)N[C@@H](CCNc3ncc(C(c4ccc(Cl)cc4)c4ccc(Cl)cc4)s3)C(=O)O)=[N+]1[B-]2(F)F`, on P2Y purinoceptor 2 [2], the outcome was Active.
